Here are results for 1 substance from patent US20250206802A1.

Protein sequences, listed by entry. Tags and fused reporters are not part of them. Chains listed by the source or under a name are the forms on record and can include a tag or linker. Residues count along the entry.
UniProt P01137, 30-390 limits assumed, form in doubt: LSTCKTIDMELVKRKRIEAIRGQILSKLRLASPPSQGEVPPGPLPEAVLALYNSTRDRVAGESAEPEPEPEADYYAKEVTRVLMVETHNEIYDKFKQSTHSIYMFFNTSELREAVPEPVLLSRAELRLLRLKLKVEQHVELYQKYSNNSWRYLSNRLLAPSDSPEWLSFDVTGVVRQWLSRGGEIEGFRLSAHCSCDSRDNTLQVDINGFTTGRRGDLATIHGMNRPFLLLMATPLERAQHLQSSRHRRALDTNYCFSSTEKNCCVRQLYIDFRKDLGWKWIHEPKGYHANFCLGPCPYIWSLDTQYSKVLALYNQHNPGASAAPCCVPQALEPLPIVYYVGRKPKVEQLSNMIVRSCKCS

The Kd is a measure of binding affinity in units of concentration.

This assay addresses purified pro-TGF-β1 (Homo sapiens (Human)) (UniProt P01137). The assay is described as follows: Biacore (SPR). (In general: Surface plasmon resonance follows binding to a sensor surface in real time, without labels.)

The substance “αVβ6 headpiece (soluble, disulfide-linked: αv headpiece residues 1-594 with M400C and β6 headpiece residues 1-474 with I270C) (from UniProt P06756 31-625; P18564 18-491) (receptor)” returned a Kd of 8.2 nM.
